Apparent affinities of Ab-14 variants for a coronavirus HR2 peptide

The measurements come from Engelhart et al. 2022 (doi:10.1038/s41597-022-01779-4) through the FLAb antibody collection.

The target is the same throughout: PDVDLGDISGINAS, from the HR2 region of SARS-CoV-2 spike.

Each scFv is VH, a 15-residue (Gly4Ser)3 linker, VL, as in the parent Ab-14, and differs from it in the CDRs of the light chain only.
VH: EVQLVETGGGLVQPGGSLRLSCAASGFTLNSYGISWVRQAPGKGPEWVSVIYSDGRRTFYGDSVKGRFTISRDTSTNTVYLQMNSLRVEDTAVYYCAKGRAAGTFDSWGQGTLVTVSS
VL: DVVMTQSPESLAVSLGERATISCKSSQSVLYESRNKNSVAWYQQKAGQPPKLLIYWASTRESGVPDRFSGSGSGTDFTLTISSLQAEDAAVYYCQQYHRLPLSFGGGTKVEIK

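The starting antibody came from a phage panning campaign against this peptide. Variants in AAYL50 differ from the parent at up to three CDR positions; double and triple changes were sampled at random. Affinity was read by AlphaSeq, a pooled yeast mating assay with surface-displayed partners. The frequency of each diploid, read from paired DNA barcodes, reflects how well the two displayed proteins bind. Read counts were normalised to the haploid input and turned into Kd by a linear fit to BCL2-family pairs of known affinity, for each replicate. The assay was run in three technical replicates.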

Each variant's VL is given in full. Affinities are written as log10 Kd with Kd in nM; a lower number is a better binder. "ND" marks a missing value. The strain was present, yet no cells mated with the target were sequenced in that replicate, which points to weak or no binding. In this assay the parent's reference entry averaged 0.65; its copy inside this library read 1.68. Background: pairings of library AAYL50 with three empty control strains gave a value in 18% of cases (median 4.19, 5th percentile 2.99). Values in that range, when seen in few replicates, are hard to tell from nonspecific mating. The control count says in how many pairings with the empty strains this scFv gave a signal, with their mean in brackets.

VL	log10 Kd (nM) by replicate	signal with controls
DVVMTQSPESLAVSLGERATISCKTSQSVLYEFRNKNSVAWYQQKAGQPPKLLIYWASTRESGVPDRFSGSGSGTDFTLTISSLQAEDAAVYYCQQYHRNPLSFGGGTKVEIK	1.94 / 1.68 / 1.66	2/9 (4.24)
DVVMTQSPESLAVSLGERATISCKSSQSVLYESRNPNSVAWYQQKAGQPPKLLIYWASIRESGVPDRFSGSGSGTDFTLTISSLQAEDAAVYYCQQYHRTPLSFGGGTKVEIK	0.62 / 1.00 / 0.94	3/9 (4.04)
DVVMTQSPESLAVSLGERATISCKSSQSGLYESRNKNSVTWYQQKAGQPPKLLIYWASTRESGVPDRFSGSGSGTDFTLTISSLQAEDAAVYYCQVYHRLPLSFGGGTKVEIK	4.20 / ND / ND	0/9
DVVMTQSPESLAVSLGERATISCKSSQSVPYESRNKNSVAWYQQKAGQPPKLLIYWASIRISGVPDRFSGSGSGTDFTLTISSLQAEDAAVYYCQQYHRLPLSFGGGTKVEIK	ND / ND / ND	2/9 (4.31)
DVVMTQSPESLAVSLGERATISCKSSQSVLYESRNKNSVAWYQQKAGQPPKLLIYWHSTRDSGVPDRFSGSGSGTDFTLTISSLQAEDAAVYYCQQYHRLKLSFGGGTKVEIK	ND / 2.76 / ND	1/9 (3.42)
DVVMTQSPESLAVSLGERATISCKSSLSVLYESRNKNSVAWYQQKAGQPPKLLIYWASTRESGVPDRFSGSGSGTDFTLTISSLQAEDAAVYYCQQYHRLMLSFGGGTKVEIK	1.59 / 2.06 / 2.18	2/9 (3.58)
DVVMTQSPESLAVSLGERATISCKSSQSVLYTSRNKNSVYWYQQKAGQPPKLLIYWASTRESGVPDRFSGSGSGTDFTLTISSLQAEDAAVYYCQQYHRLPLSFGGGTKVEIK	ND / ND / ND	2/9 (3.73)
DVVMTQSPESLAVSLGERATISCKSSQSVLYESRNKQSVIWYQQKAGQPPKLLIYWAETRESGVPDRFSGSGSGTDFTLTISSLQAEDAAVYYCQQYHRLPLSFGGGTKVEIK	4.47 / ND / 5.03	6/9 (4.64)
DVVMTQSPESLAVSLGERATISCKSSQSVAYESRNKLSVAWYQQKAGQPPKLLIYWASARESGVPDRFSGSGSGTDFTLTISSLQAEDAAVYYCQQYHRLPLSFGGGTKVEIK	3.73 / 4.13 / ND	2/9 (4.58)
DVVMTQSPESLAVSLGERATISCKSSQSVLYESRNKNSVAWYQQKAGQPPKLLIYWASTRESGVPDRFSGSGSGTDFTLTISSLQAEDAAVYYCQGPHRLCLSFGGGTKVEIK	ND / ND / ND	2/9 (3.30)
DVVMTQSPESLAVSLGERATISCKSSQSVLYESRNKNSVAWYQQKAGQPPKLLIYWASTRESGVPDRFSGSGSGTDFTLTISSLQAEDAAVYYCQQGHRLPWSFGGGTKVEIK	2.73 / 3.31 / ND	0/9
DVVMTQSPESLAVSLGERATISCKSSQWVLYESRQKNSVAWYQQKAGQPPKLLIYWASTWESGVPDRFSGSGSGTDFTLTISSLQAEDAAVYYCQQYHRLPLSFGGGTKVEIK	ND / ND / ND	1/9 (3.44)
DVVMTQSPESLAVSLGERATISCKSSQSVLYESRNKNSVAWYQQKAGQPPKLLIYWHSTRESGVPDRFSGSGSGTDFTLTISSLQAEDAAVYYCQQYHRLPWNFGGGTKVEIK	ND / ND / ND	0/9
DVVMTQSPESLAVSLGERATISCKSSQSVLYESRNKNSVAWYQQKAGQPPKLLIYWASTWESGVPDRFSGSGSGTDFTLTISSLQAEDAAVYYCQDYHRLPLSFGGGTKVEIK	4.36 / 2.55 / ND	3/9 (4.24)
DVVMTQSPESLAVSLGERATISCKSSQSVLYESKNKNTVAWYQQKAGQPPKLLIYWASYRESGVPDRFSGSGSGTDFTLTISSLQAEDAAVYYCQQYHRLPLSFGGGTKVEIK	2.24 / 2.68 / 2.51	3/9 (3.69)

A selection of 2 entries from above:

VL,log10 Kd (nM) by replicate,signal with controls
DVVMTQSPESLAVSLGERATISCKSSQSVAYESRNKLSVAWYQQKAGQPPKLLIYWASARESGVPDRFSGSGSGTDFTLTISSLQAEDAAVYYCQQYHRLPLSFGGGTKVEIK,3.73 / 4.13 / ND,2/9 (4.58)
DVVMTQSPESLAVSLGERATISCKSSQSVLYESRNKQSVIWYQQKAGQPPKLLIYWAETRESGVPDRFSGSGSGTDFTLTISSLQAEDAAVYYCQQYHRLPLSFGGGTKVEIK,4.47 / ND / 5.03,6/9 (4.64)